These results are taken from PMC6273807, “Identification of Selective ERRγ Inverse Agonists” (Molecules, 2016).

Where only a bound is given, the exact number is not on record here.

Experiment [1] concerns the target T1, ERRγ (Homo sapiens, UniProt P62508).
T1 construct: purchased Life Technologies
T1 sequence (P62508 233-457 limits assumed): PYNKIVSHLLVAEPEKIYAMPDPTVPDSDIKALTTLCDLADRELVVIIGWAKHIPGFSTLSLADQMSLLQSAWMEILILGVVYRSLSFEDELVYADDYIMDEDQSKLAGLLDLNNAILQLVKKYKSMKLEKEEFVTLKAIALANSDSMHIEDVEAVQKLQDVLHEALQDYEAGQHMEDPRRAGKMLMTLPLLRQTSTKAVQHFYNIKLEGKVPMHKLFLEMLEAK
Kind of experiment: TR-FRET (LanthaScreen) ERRγ binding assay. The note with it: Table 1 screening; 2-fold serial dilution from 10 μM; read-out: ERRγ, IC50 (binding inhibition of ERRγ binding activity). As for the experimental part: Initials creening was conducted using a well established TR-FRET based ERRγ binding assay as described in the Experimental section at a concentration of 10 μM. Serial dilutions of the synthesized compounds were used to calculate IC50 values for the binding affinity with ERRγ.
ERRγ binding assay was conducted with Lantascreen assay system (Life Technologies, Grand Island, NY, USA), which was based on TR-FRET, followed by manufacturer’s instruction. Briefly, compounds were serially diluted with 2-fold staring from 10 μM and 10 μL of each diluent was added in 384 well plate. Then, GST-conjugated ERRγ LBD (ligand-binding domain) was added to be 5 nM. Next, the mixture of fluorescien-conjugated coactivator PGC1a (final concentration to be 500 nM) and Tb-a-GST antibody (final concentration to be 5 nM) was added. The reaction mixture was incubated at rt in dark state for 1 h.

Experiment [2] has as its target T2, ERRγ (Homo sapiens, UniProt P62508).
T2 sequence (P62508 233-458 limits assumed): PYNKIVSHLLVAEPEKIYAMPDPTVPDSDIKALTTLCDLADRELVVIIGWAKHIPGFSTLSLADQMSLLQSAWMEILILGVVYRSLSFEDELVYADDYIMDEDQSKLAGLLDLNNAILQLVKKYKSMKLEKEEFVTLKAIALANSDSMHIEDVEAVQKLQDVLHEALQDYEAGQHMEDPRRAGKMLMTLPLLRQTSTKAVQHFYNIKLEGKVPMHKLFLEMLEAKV
Put plainly: ERRγ functional assay: GAL4-ERRγ luciferase reporter gene in AD293 cells. Format: cell-based. As to conditions: 10 μM, compared with control ligand 4. The protocol:
Along with the binding assay campaign, functional activity was determined in order to validate the utility of the binding affinity in a cellular context as described in the Experimental.
Figure 2 Cell based reporter-gene assay screening of 16 analogs ERRγ binding activity in cell was measured by luciferase activity using co-transfection system with GAL4-ERRγ and pFR-luciferase reporter gene.
AD293 cells were cultured in Dulbecco’ modified Eagle medium (DMEM) High glucose supplemented with 0.5% FBS (Hyclone, Logan, UT, USA). After 24 h, culture media was changed with DMEM High glucose containing 10% FBS. DNA constructs, which includes pCMX-Gal4-ERRγ, pFR-luciferase reporter plasmid, pCMV-β-gal were transiently transfected into AD293 cells using TransIT-LT1 transfection reagent (Mirus, Madison, WI, USA) for 24 h. Then, transfected cells were treated with compounds for 24 h and harvested for detection of luciferase activity and β-gal activity. All cells were incubated at 37 °C under 5% CO2 in a humidified incubator [5].

As to “(Z)-4-(1-(4-(2-(Dimethylamino)ethoxy)phenyl)-5-hydroxy-2-(1-methyl-1H-indol-6-yl)pent-1-en-1-yl)phenol [Compound 15h]”, on ERRγ [1], the IC50 is greater than 10 µM. Moreover, the “ERRγ functional activity in the cellular system (in words)” value at ERRγ [2] was “partial agonistic activity”.
